Assay outcomes deposited in PubChem by National Center for Advancing Translational Sciences (NCATS).
Most compounds without a hit are left out; they make up all but 2.3% or so of the library.
Glioma ERSR ind: ER stress response induction in glioma. U87-MG GRP78 promoter luciferase reporter, 16 h. Potency, µM, hits mostly activators. 420,000 compounds, 0.02% hits. AID 602332; also: series mostly up to about 76 µM; nearly all actives have a fitted effect of over 35% in size
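ERSR induction read as luciferase luminescence (Bright-Glo, 10 min at room temperature) in stably transfected human U87-MG glioma cells exposed to compounds for 16 h, using GRP78 as sensor.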
Nrf2 block: Nrf2 pathway inhibition. AID 504444. 360,000 compounds, 2.1% hits. A549 ARE-Fluc reporter, luciferase luminescence, 18-24 h. Potency, µM (series often up to 46 µM), actives largely listed as inhibitors; also: nearly all actives have a fitted effect of over 60% in size
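Concentration-response testing used A549 ARE_Fluc cells at 5000 cells/well. Following an 18-24 h compound incubation, viability was read by fluorescence (Ex 405/Em 525) and luciferase output by luminescence.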
A549 tox: kills or reduces viability of A549 cells in Nrf2 counter-screen. A549 ARE-Fluc cells, CellTiter-Fluor viability, 18-24 h. Potency, µM (series often up to 46 µM), most hits filed as inhibitors. 390,000 compounds, 0.16% hits
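A549 ARE_Fluc cells in 5% FBS OPTI-MEM were exposed to compounds in concentration-response for 18-24 h at 37 deg C. Viability was read by CellTiter-Fluor fluorescence (Ex 405/Em 525) after 30 min, before the luciferase read.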
Mito fusion yeast: inhibitors of mitochondrial division or activators of mitochondrial fusion; S. cerevisiae fusion-defective mutant growth rescue, CellTiterGlo 48 h; Potency, µM (doses to about 46.1 µM), most hits filed as activators; 320,000 compounds, 0.23% hits; AID 485298; also: nearly all actives have a fitted effect of over 45% in size
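Yeast fusion mutant, YPEG (non-fermentable carbon), compound, 48 h at 37C non-permissive; CellTiterGlo added, 10 min RT, luminescence read. Rescued growth = division inhibition.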
miR-21 reporter: miR-21 reporter, rising signal | HeLa miR-21 FLuc reporter, luciferase, 48 h | Potency, µM (highest dose often 38.3 µM) | 340,000 tested, under 10 active | AID 2288; active = well fitted rising curve with a large enough effect; inconclusive = small, poorly fitted or top-dose-only effect; inactive = no such curve, though single readings can be large or run the other way;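 further: miR-21 action dims this reporter so a rising signal means less miR-21 action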
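Luminescence from a firefly luciferase reporter carrying a miR-21 binding site downstream, stably expressed under a CMV promoter in HeLa cells that make miR-21 endogenously, reports miRNA modulation after 48 h compound exposure up to approximately 40uM final.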
Nrf2 ARE act: activates Nrf2 signaling | AREc32 ARE-luciferase reporter (MCF7-derived line), luminescence, 24 h | Potency, µM (series often up to 46.1 µM), most hits filed as activators | 410,000 compounds, 0.31% hits; also: nearly all actives have a fitted effect of over 65% in size
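Each well held 1000 AREc32 cells, which were incubated with compound for 24 hr at 37 deg C after overnight attachment, and ARE reporter activity was quantified by firefly luciferase luminescence.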
Of the large screens only hits and unclear results are named; the others gave an inactive call; ! = not active in a repeat. Unless noted, calls follow the shape of the dose curve; as a rule, active = well fitted curve in the direction sought with a large enough effect; inconclusive = small, poorly fitted or top-dose-only effect, or another doubt; inactive = no such curve, though single readings can be large; an effect the other way counts as inactive or inconclusive.

COc1ccc(OC)c(N(CCN2C(=O)c3ccccc3C2=O)C(=O)CCl)c1	Nrf2 ARE act 13µM (no result: Nrf2 block, A549 tox, Mito fusion yeast, miR-21 reporter)
COc1ccc(NC(=O)CCN2C(=O)c3ccccc3C2=O)c(OC)c1	none
CCn1c(CNC(=O)COc2ccc(C(C)C)cc2)nnc1SCC(=O)Nc1ccccc1	none
O=C1NC[C@H](Cc2ccccc2)N(CC2CCN(CC3CCCC3)CC2)C1=O	none (no result: Mito fusion yeast, miR-21 reporter)
CC1CN(CCCCOc2cccc(Oc3ccccc3)c2)CC(C)O1 (configuration not stated)	Mito fusion yeast inconclusive
O=c1cc2oc3cc(O)c(O)cc3c(-c3ccccc3O)c-2cc1O	Nrf2 block inconclusive, Nrf2 ARE act inconclusive
CCOc1ccccc1-c1c2cc(O)c(=O)cc-2oc2cc(O)c(O)cc12	Nrf2 block inconclusive, A549 tox 18µM
COc1ccc(OC)c(-c2c3cc(O)c(=O)cc-3oc3cc(O)c(O)cc23)c1	A549 tox 21µM
CC(C)c1ccc(S(=O)(=O)N2CCN(C(=O)CCNC(=O)Nc3ccccc3)CC2)cc1	none (no result: miR-21 reporter)
CCOC(=O)Cc1csc(NC(=O)CN2C(=O)c3ccccc3S2(=O)=O)n1	none
CC(=O)Oc1cc2c(c3ccccc13)CCC2=O	Nrf2 ARE act 13µM (no result: Mito fusion yeast, miR-21 reporter)
Cc1cc(C)nc(NS(=O)(=O)c2ccc(NC(=O)c3cc4c(=O)n5cccc(C)c5nc4n3C)cc2)n1	Nrf2 block 23µM
CCOc1c(Br)cc(C(=O)OCC(=O)N2CCc3ccccc3C2)cc1OC	Nrf2 block inconclusive (no result: miR-21 reporter)
Cn1c(=O)cc(NCCc2ccccc2)[nH]c1=O	none
CC(=O)Nc1cccc(NC(=O)CSc2ncc(-c3ccc(Cl)cc3)n2Cc2ccco2)c1	Nrf2 block 18µM, Mito fusion yeast inconclusive, miR-21 reporter inconclusive
Cc1cc2c3c([nH]c2cc1S(=O)(=O)N1CCC2(CC1)OCCO2)CC(C)(C)CC3=O	Nrf2 block 23µM
O=S(=O)(c1ccc2nc(SCc3ccc(Cl)cc3)[nH]c2c1)N1CCOCC1	Nrf2 block 23µM
COc1cc(/C=C/C(=O)OCC(=O)N2CCCC2)ccc1OCC#N	none (no result: miR-21 reporter)
COCCN(C(=O)CCC(=O)Nc1nccs1)C(C(=O)NC(C)(C)C)c1ccc(C)cc1 (configuration not stated)	none
Cc1ccc(NC(=O)c2sc3ncnc(N4CCN(c5ccccn5)CC4)c3c2C)c(C)c1	Nrf2 block inconclusive, Mito fusion yeast 13µM
CCOC(=O)c1c(NC(=O)COc2ccc(Br)cc2)sc(C(C)=O)c1C	none (no result: Nrf2 block)
CCOC(=O)c1c(NC(=O)COc2ccc(OC)cc2)sc(C(=O)N(CC)CC)c1C	Nrf2 block 23µM, miR-21 reporter inconclusive (no result: Glioma ERSR ind, Mito fusion yeast)
CCOC(=O)c1c(NC(=O)COC(=O)c2cccnc2OCC)sc(C(=O)N(CC)CC)c1C	Nrf2 block 15µM (no result: Mito fusion yeast, miR-21 reporter)
CC(C)CNC(C)C(=O)Nc1ccc(S(N)(=O)=O)cc1 (configuration not stated)	none
Cc1noc(C)c1C(=O)OCC(=O)Nc1ncc(Cl)c(C)c1Cl	none (no result: Mito fusion yeast, miR-21 reporter)
Cc1ccc(Oc2coc3cc(O)ccc3c2=O)cc1	Nrf2 block 9.2µM
Cc1ccc(CSc2nnc(SCC(=O)N/N=C/C=C/c3ccco3)s2)cc1	none
CC(/C=N/NC(=O)c1cccnc1)=C\c1ccco1	Nrf2 ARE act inconclusive
CC(/C=N/NC(=O)c1cnccn1)=C\c1ccco1	Nrf2 ARE act 8.9µM
CC(/C=N/NC(=O)CSc1nnc(SCc2ccccc2)s1)=C\c1ccco1	Mito fusion yeast inconclusive, Nrf2 ARE act 11µM
CC1CCCC(C)N1NC(=S)Nc1ccc(OC(F)F)cc1 (configuration not stated)	none
COc1ccc(S(=O)(=O)N2CCOC2CNC(=O)C(=O)NCc2ccncc2)cc1 (configuration not stated)	none
CCCC[C@@]1(C2CCCC2)Cc2cc(OCC(=O)O)c(Cl)c(Cl)c2C1=O	Mito fusion yeast 21µM! (no result: miR-21 reporter)
O=C(NNC(=O)c1ccc2[nH]c(=O)c(=O)[nH]c2c1)c1cccc(Br)c1	none
CC(C)NCC(O)Cn1c2c(c3ccccc31)CCc1c-2cnn1-c1ccccc1 (configuration not stated)	miR-21 reporter inconclusive (no result: Nrf2 block)
Cc1ccc(CNC(=O)c2cnn(-c3cccc(C)c3)c2C2CCN(C(=O)OC(C)(C)C)CC2)cc1	Nrf2 block 18µM, miR-21 reporter inconclusive (no result: Mito fusion yeast)
Cc1ccc(CNC(=O)c2cnn(-c3ccc(F)cc3F)c2C2CCN(C(=O)OC(C)(C)C)CC2)cc1	Nrf2 block 16µM, A549 tox inconclusive, miR-21 reporter inconclusive (no result: Mito fusion yeast)
COc1ccccc1CNC(=O)c1cnn(-c2ccc(F)cc2F)c1C1CCN(C(=O)OC(C)(C)C)CC1	Nrf2 block inconclusive (no result: Mito fusion yeast)
O=C(Nc1cc(Sc2nc3ccccc3s2)cc([N+](=O)[O-])c1)c1ccccc1	Nrf2 block inconclusive, Mito fusion yeast inconclusive
O=C(Nc1cc(Sc2ccccn2)cc([N+](=O)[O-])c1)c1cccc(F)c1	Nrf2 block 18µM, Mito fusion yeast 18µM
O=C(NC1CCCCC1)C1CCCN(S(=O)(=O)c2cnc[nH]2)C1 (configuration not stated)	none
O=C(NC1CC1)C1CCN(C2CCN(Cc3ccccc3C(F)(F)F)CC2)CC1	none
O=C1CC(N2CCN(C/C=C/c3ccccc3)CC2)C(=O)N1CCc1ccccc1 (configuration not stated)	Nrf2 block 9.2µM
CN1C2C=CC(=O)C1C1C(=O)N(c3ccccc3)C(=O)C12 (configuration not stated)	Nrf2 ARE act inconclusive (no result: Nrf2 block, A549 tox, Mito fusion yeast, miR-21 reporter)
O=C(/C=C/c1ccccc1)NC(NC(=S)Nc1ccc(Cl)cc1Cl)C(Cl)(Cl)Cl (configuration not stated)	Nrf2 block 21µM, A549 tox inconclusive, miR-21 reporter inconclusive
O=C(/C=C/c1ccccc1)NC(NC(=S)Nc1cccc(Cl)c1)C(Cl)(Cl)Cl (configuration not stated)	Nrf2 block 7.3µM, A549 tox inconclusive
O=C(/C=C/c1ccccc1)NC(NC(=S)Nc1cccc(O)c1)C(Cl)(Cl)Cl (configuration not stated)	none
O=C(/C=C/c1ccccc1)NC(NC(=S)Nc1ccc(C(=O)O)cc1)C(Cl)(Cl)Cl (configuration not stated)	none
O=C1C2=C(C(=O)c3ccccc31)C1O[C@](c3ccsc3)(Cc3c1ccc1ccccc31)O2	none (no result: Glioma ERSR ind, Nrf2 block, A549 tox, Nrf2 ARE act)
Nc1ccc(N2CCN(c3ccc(F)cc3)CC2)cc1	none
Nc1ccc(N2CCN(c3ccc(Cl)c(Cl)c3)CC2)cc1	Nrf2 block inconclusive, Mito fusion yeast 13µM, miR-21 reporter inconclusive
COc1ccc(CCNC(=O)c2cc(=O)c3cc(C)cc(C)c3o2)cc1OC	Nrf2 block inconclusive (no result: Mito fusion yeast)
